B1: CSN2 (subunit 2 of the human COP9 signalosome) (other, UniProt P61201 1-443, looked up)
chain: MSDMEDDFMCDDEEDYDLEYSEDSNSEPNVDLENQYYNSKALKEDDPKAALSSFQKVLELEGEKGEWGFKALKQMIKINFKLTNFPEMMNRYKQLLTYIRSAVTRNYSEKSINSILDYISTSKQMDLLQEFYETTLEALKDAKNDRLWFKTNTKLGKLYLEREEYGKLQKILRQLHQSCQTDDGEDDLKKGTQLLEIYALEIQMYTAQKNNKKLKALYEQSLHIKSAIPHPLIMGVIRECGGKMHLREGEFEKAHTDFFEAFKNYDESGSPRRTTCLKYLVLANMLMKSGINPFDSQEAKPYKNDPEILAMTNLVSAYQNNDITEFEKILKTNHSNIMDDPFIREHIEELLRNIRTQVLIKLIKPYTRIHIPFISKELNIDVADVESLLVQCILDNTIHGRIDQVNQLLELDHQKRGGARYTALDKWTNQLNSLNQAVVSKLA
notes: Studied as a subunit within the reconstituted CSN or CSNn complex
B2: CSN3 (subunit 3 of the human COP9 signalosome) (other, UniProt Q9UNS2 1-423, looked up)
chain: MASALEQFVNSVRQLSAQGQMTQLCELINKSGELLAKNLSHLDTVLGALDVQEHSLGVLAVLFVKFSMPSVPDFETLFSQVQLFISTCNGEHIRYATDTFAGLCHQLTNALVERKQPLRGIGILKQAIDKMQMNTNQLTSIHADLCQLCLLAKCFKPALPYLDVDMMDICKENGAYDAKHFLCYYYYGGMIYTGLKNFERALYFYEQAITTPAMAVSHIMLESYKKYILVSLILLGKVQQLPKYTSQIVGRFIKPLSNAYHELAQVYSTNNPSELRNLVNKHSETFTRDNNMGLVKQCLSSLYKKNIQRLTKTFLTLSLQDMASRVQLSGPQEAEKYVLHMIEDGEIFASINQKDGMVSFHDNPEKYNNPAMLHNIDQEMLKCIELDERLKAMDQEITVNPQFVQKSMGSQEDDSGNKPSSYS
notes: as for B1

Experiment [1] concerns the target B2. The experiment is described as follows: PRM targeted quantitation of the DHSO cross-linked peptide, CSN against CSNn (with CSN9).
For experiment [2], the target named is B1. The experiment is described as follows: integrative structures of CSN and CSNn from cross-links.

As to B1, in experiment [1], the “relative abundance ratio (CSN/CSNn) of the inter-subunit cross-link” value is 30.1 ratio (CSN/CSNn).

Consider B2, for which the binding result in experiment [2] is given as “binds”.

The values above are taken from patent US11603352 (University of California, dated 2023).
